The values below come from EPA's ToxRefDB 2.

Series [1] has as its system rat. The conditions noted are these: Prenatal developmental toxicity study, Oral, Gavage/Intubation, dose end: 12 day.
Series [2] has as its system rabbit. Particulars: Prenatal developmental toxicity study, new zealand white, Oral, Gavage/Intubation, dose end: 13 day.
Series [3] has as its system rat. The conditions noted are these: Prenatal developmental toxicity study, sprague dawley, Oral, Gavage/Intubation, dose end: 12 day.
In series [4] the test system is rat. Particulars: Prenatal developmental toxicity study, Oral, Gavage/Intubation, dose end: 12 day. The source holds these as a separate data set.
In series [5] the test system is rat. The conditions noted are these: Prenatal developmental toxicity study; Oral; Gavage/Intubation; dose end: 1 generation; group: maternal; reproductive / reproductive performance / precoital interval / precoital interval + systemic / in life observation / body weight / body ….
Series [6] deals with rabbit. Particulars: Prenatal developmental toxicity study, Oral, Gavage/Intubation, dose end: 13 day, group: maternal.
The subject of series [7] is rat. The conditions noted are these: Prenatal developmental toxicity study, sprague dawley, Oral, Gavage/Intubation, dose end: 21 PND.
The subject of series [8] is rat. Particulars: Sub-acute repeat dose toxicity; sprague dawley; Oral; Gavage/Intubation; dose end: 36 day; group: systemic; systemic / in life observation / clinical signs / hyperactivity.
Series [9] deals with rabbit. The conditions noted are these: Prenatal developmental toxicity study, Oral, Gavage/Intubation, dose end: 15 day.
For series [10], the system named is rat. The conditions noted are these: Prenatal developmental toxicity study; Oral; Gavage/Intubation; dose end: 1 generation; group: maternal; reproductive / reproductive performance / estrous cycle / corpora lutea + reproductive / reproductive performance / fertility / fertility + ….
The test system of series [11] is rat. The conditions noted are these: Prenatal developmental toxicity study, long evans, Oral, Gavage/Intubation, dose end: 3 PND, group: developmental.
The test system of series [12] is rat. The conditions noted are these: Prenatal developmental toxicity study, Injection, Intravenous, dose end: 12 day.
Series [13] has as its system rabbit. The conditions noted are these: Prenatal developmental toxicity study, Injection, Intravenous, dose end: 13 day.
Series [14] has as its system rabbit. The conditions noted are these: Sub-acute repeat dose toxicity; Injection; Intravenous; dose end: 5 day; group: systemic; systemic / in life observation / clinical signs / altered breathing rate + systemic / in life observation / clinical signs / labored ….
The subject of series [15] is rat. The conditions noted are these: Prenatal developmental toxicity study, Injection, Intravenous, dose end: 12 day. The source holds these as a separate data set.
Where [16] appears, read: group: developmental, developmental / developmental malformation / trunk / umbilical hernia + systemic / in life observation / body weight / fetal weight.
[17] abbreviates: group: maternal, systemic / clinical chemistry / cholesterol / cholesterol + systemic / pathology microscopic / blood / poikilocytosis.
Where [18] appears, read: group: maternal, systemic / clinical chemistry / cholesterol / cholesterol + systemic / pathology microscopic / blood / poikilocytosis + reproductive / ….
[19] abbreviates: group: developmental, systemic / in life observation / body weight / fetal weight.
Setting [20] is: group: maternal, reproductive / reproductive performance / aborted / aborted + systemic / in life observation / body weight / body weight gain + systemic / ….
The mark [21] stands for this setting: group: maternal, systemic / in life observation / body weight / body weight gain + systemic / in life observation / food consumption / food consumption.
The mark [22] stands for this setting: group: maternal, systemic / in life observation / body weight / body weight + systemic / in life observation / body weight / body weight gain + systemic / in….
Setting [23] is: group: developmental, developmental / developmental malformation / trunk / anal atresia + systemic / in life observation / body weight / fetal weight.
Where [24] appears, read: systemic / in life observation / body weight / body weight gain + systemic / in life observation / food consumption / food consumption + ….
[25] abbreviates: group: developmental, developmental / developmental landmark / vaginal opening / vaginal opening + systemic / in life observation / body weight / offspring (pup) ….
Where [26] appears, read: group: maternal, systemic / in life observation / clinical signs / motor activity.
Setting [27] is: group: maternal, systemic / in life observation / clinical signs / motor activity + systemic / in life observation / body weight / body weight.
[28] abbreviates: group: developmental, developmental / developmental malformation / trunk / omphalocele + systemic / in life observation / body weight / fetal weight.
[29] abbreviates: group: maternal, reproductive / offspring survival early / litter size / litter size + reproductive / reproductive performance / aborted / aborted + ….
The mark [30] stands for this setting: developmental / developmental landmark / anogenital distance (agd) / anogenital distance (agd).
The mark [31] stands for this setting: developmental / developmental malformation / penis / hypospadias + developmental / developmental landmark / anogenital distance (agd) / ….
Setting [32] is: group: developmental, developmental / developmental malformation / bone / [other] + developmental / developmental malformation / bone / incomplete ossification + ….
Where [33] appears, read: group: maternal, systemic / in life observation / food consumption / food consumption + systemic / pathology gross / skin / mass + systemic / pathology gross….
[34] abbreviates: group: maternal, systemic / in life observation / mortality / mortality.
The mark [35] stands for this setting: group: maternal, systemic / in life observation / mortality / mortality + reproductive / reproductive performance / aborted / aborted + systemic / in life ….
Where [36] appears, read: group: maternal, systemic / in life observation / mortality / mortality + systemic / in life observation / body weight / body weight + systemic / in life ….

As for `CC(=O)NCCN1CCc2cc(NC(=O)c3ccccc3-c3ccc(C(F)(F)F)cc3)ccc2C1`, the LEL in the series on rat [1] (setting [16]), in the series with rat [1] (setting [17]), in the series with rabbit [2] (setting [19]) and in the series with rabbit [2] (setting [21]) was 2 mg/kg/day in each case. The NEL in the series on rat [1] (setting [16]), with rat [1] (setting [17]), in the series with rabbit [2] (setting [19]) and in the series with rabbit [2] (setting [21]) was less than 2 mg/kg/day throughout. Also, the LOAEL (usually the lowest tested level that showed an adverse finding) with rat [1] (setting [18]) was more than 50 mg/kg/day; in the series with rabbit [2] (setting [19]), more than 100 mg/kg/day; with rabbit [2] (setting [20]), more than 100 mg/kg/day. The NOAEL (commonly the highest tested level that showed no adverse finding) in the series on rat [1] (setting [18]) was not below 50 mg/kg/day; in the series on rabbit [2] (setting [19]) it was not below 100 mg/kg/day; in the series on rabbit [2] (setting [20]), not below 100 mg/kg/day.

In the series with rat [3] (setting [19]), `CS(=O)(=O)O.Cc1nccn1-c1ccc(Sc2cccc(C3(C(N)=O)CCOCC3)c2)cc1` registered an LEL of 75 mg/kg/day, an LOAEL of more than 75 mg/kg/day and a no observed adverse effect level (NOAEL) not below 75 mg/kg/day. Moreover, in the series with rat [3] (setting [22]), the lowest observed adverse effect level (LOAEL) was more than 75 mg/kg/day and the no observed adverse effect level (NOAEL) was not below 75 mg/kg/day. Besides, in the series on rat [3] (setting [21]), the LEL worked out at 10 mg/kg/day and the NEL is less than 10 mg/kg/day.

`Cc1cc2c3c(c1)C(c1ccccc1)=N[C@@H](NC(=O)c1ccncc1)C(=O)N3CC2` [CI-1018]: the LEL in the series on rat [4] (setting [23]) amounted to 500 mg/kg/day; with rat [4] (group: maternal, systemic / in life observation / body weight / body weight gain + systemic / in life observation / clinical signs / abnormal feces + …), 300 mg/kg/day; in the series with rat [5] it was 300 mg/kg/day. The lowest-observed-adverse-effect level (LOAEL) with rat [4] (setting [23]) is more than 750 mg/kg/day; with rat [4] (setting [22]), more than 750 mg/kg/day; in the series on rat [5], more than 500 mg/kg/day; with rabbit [6] (setting [24]) it was more than 1000 mg/kg/day. Moreover, the NOAEL in the series on rat [4] (setting [23]) was not below 750 mg/kg/day; with rat [4] (setting [22]), not below 750 mg/kg/day; with rat [5], not below 500 mg/kg/day; in the series on rabbit [6] (setting [24]), not below 1000 mg/kg/day. Further, the results for the NEL in the series on rat [4] (setting [22]), in the series with rat [5] and in the series with rabbit [6] (systemic / in life observation / body weight / body weight gain + systemic / in life observation / food consumption / food consumption) were 100 mg/kg/day, 100 mg/kg/day and less than 50 mg/kg/day, respectively.

As to `COCCOC[C@H](CC1(C(=O)NC2CCC(C(=O)O)CC2)CCCC1)C(=O)Oc1ccc2c(c1)CCC2` (some centres not stated) [Candoxatril], in the series on rat [7] (setting [25]), the LEL is 1200 mg/kg/day, the lowest observed adverse effect level (LOAEL) was more than 1200 mg/kg/day, the NEL was 400 mg/kg/day and the NOAEL is not below 1200 mg/kg/day. Also, in the series with rat [7] (setting [26]), the LEL came out at 120 mg/kg/day and the NEL was less than 120 mg/kg/day. Also, in the series with rat [7] (setting [27]), the LOAEL is more than 1200 mg/kg/day and the NOAEL is not below 1200 mg/kg/day. For the same compound, the LEL in the series on rat [8] was determined as 120 mg/kg/day.

Take `CC(C)(C)c1cc(/C=C2\SC(N)=NC2=O)cc(C(C)(C)C)c1O.CS(=O)(=O)O` [Darbufelone mesylate]: the figures for the LOAEL in the series with rabbit [9] (setting [28]), in the series on rabbit [9] (setting [29]) and with rat [10] were more than 100 mg/kg/day, more than 100 mg/kg/day and more than 50 mg/kg/day, respectively. Further, the no observed adverse effect level (NOAEL) in the series with rabbit [9] (setting [28]) was not below 100 mg/kg/day; with rabbit [9] (setting [29]), not below 100 mg/kg/day; in the series on rat [10] it was not below 50 mg/kg/day.

In the series on rat [11] (setting [30]), `CC12CC1(C)C(=O)N(c1cc(Cl)cc(Cl)c1)C2=O` (configuration not stated) [Procymidone] showed an LEL of 25 mg/kg/day and an NEL of less than 25 mg/kg/day. In the series on rat [11] (setting [31]), the LOAEL is more than 200 mg/kg/day and the NOAEL was not below 200 mg/kg/day.

As for `NC(N)=NC(=O)c1cnn(-c2cccc3ncccc23)c1C1CC1` [Zoniporide], the LEL in the series with rat [12] (setting [32]) was determined as 200 mg/kg/day; with rat [12] (setting [33]) it was 15 mg/kg/day; in the series with rabbit [13] (setting [19]) it was 150 mg/kg/day; with rabbit [13] (setting [34]), 15 mg/kg/day; with rabbit [14], 250 mg/kg/day; with rat [15] (setting [19]), 250 mg/kg/day. Also, in the series on rat [15] (setting [34]), the LEL is 15 mg/kg/day. Moreover, the lowest-observed-adverse-effect level (LOAEL) was more than 200 mg/kg/day with rat [12] (setting [32]); more than 200 mg/kg/day in the series on rat [12] (setting [33]); more than 150 mg/kg/day with rabbit [13] (setting [19]); more than 150 mg/kg/day in the series on rabbit [13] (setting [35]); more than 250 mg/kg/day in the series on rat [15] (setting [19]); more than 250 mg/kg/day in the series with rat [15] (setting [36]). In addition, the NOAEL was not below 200 mg/kg/day with rat [12] (setting [32]); not below 200 mg/kg/day in the series on rat [12] (setting [33]); not below 150 mg/kg/day in the series with rabbit [13] (setting [19]); not below 150 mg/kg/day in the series on rabbit [13] (setting [35]); not below 250 mg/kg/day in the series on rat [15] (setting [19]); not below 250 mg/kg/day in the series on rat [15] (setting [36]). The NEL with rat [12] (setting [33]) was less than 15 mg/kg/day; in the series with rabbit [13] (setting [19]), 50 mg/kg/day; in the series with rabbit [13] (setting [34]) it was less than 15 mg/kg/day; in the series with rat [15] (setting [34]) it was less than 15 mg/kg/day.
